# Experimental data from publication PMC11531485, “Examining prestructured β-actin peptides as substrates of histidine methyltransferase SETD3” (Scientific Reports, 2024).
# The chains behind the UniProt entries cited, without tags or fusion partners.
# UniProt Q86TU7, whole entry: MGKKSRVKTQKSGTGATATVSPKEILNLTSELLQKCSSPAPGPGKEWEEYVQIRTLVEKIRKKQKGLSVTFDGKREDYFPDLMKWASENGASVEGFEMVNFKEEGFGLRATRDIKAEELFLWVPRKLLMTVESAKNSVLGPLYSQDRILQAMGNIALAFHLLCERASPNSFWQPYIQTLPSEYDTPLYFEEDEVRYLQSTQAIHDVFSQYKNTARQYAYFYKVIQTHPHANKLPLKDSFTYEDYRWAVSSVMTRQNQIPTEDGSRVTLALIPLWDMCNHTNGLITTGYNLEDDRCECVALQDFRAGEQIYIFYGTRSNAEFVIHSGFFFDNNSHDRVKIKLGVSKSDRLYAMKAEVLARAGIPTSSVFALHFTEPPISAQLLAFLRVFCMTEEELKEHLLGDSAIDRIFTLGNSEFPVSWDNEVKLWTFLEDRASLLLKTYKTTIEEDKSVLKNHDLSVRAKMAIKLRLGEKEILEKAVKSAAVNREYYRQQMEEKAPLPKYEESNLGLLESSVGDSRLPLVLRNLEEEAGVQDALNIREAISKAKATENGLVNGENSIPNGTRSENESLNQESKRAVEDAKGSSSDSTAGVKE
# What was measured:
# human SETD3 [1] = target: T1, human SETD3 (Homo sapiens, UniProt Q86TU7); assay: MALDI-TOF MS enzymatic substrate scope assay (SETD3-catalyzed methylation of βA peptides); type: biochemical; conditions: 1 µM SETD3, 10 µM βA peptide, 100 µM SAM, 25 mM Tris, 20 mM NaCl, pH 9.0, 37 °C
# Procedure: We examined conformationally restrained βA peptides and linear controls as substrates for the recombinantly expressed human SETD3 employing MALDI-TOF MS to detect a characteristic + 14 Da mass increase upon methylation. Enzymatic reactions were evaluated using standard conditions (1 µM SETD3, 10 µM βA, 100 µM SAM) in methylation buffer (25 mM Tris, 20 mM NaCl, pH = 9.0 at 37 °C)[21]. The enzymatic reaction was quenched with 10% TFA in MilliQ water (1:1 v/v) at 1 h and 3 h before mass spectrometric analysis (Figs . 4 and S3-S4). […] Similarly, linear lactam controls 6 and 8, which substitute βA-I75 with a primary amine (Orn/Lys) were completely methylated within an hour (Fig. S4G, I). […] Finally, azide-alkyne Cu^I-mediated Huisgen 1,3-dipolar cycloaddition yields peptide 11 that was poorly (14%) methylated by SETD3 after 3 h under standard conditions (Figs. 4L and S4L). […]
# SETD3 substrate scope experiments towards βA peptides were performed by incubation of βA peptides (10 µM) in methylation buffer (25 mM Tris, 20 mM NaCl, pH = 9.0) in the presence of SAM (100 µM) and SETD3 (1 µM) in a final volume of 50 µL for 1 and 3 h at 37 °C while shaking at 750 rpm in an Eppendorf Thermomixer C. […] The aliquots were loaded onto a MTP 384 polished steel target for MALDI-TOF analysis using a UltrafleXtreme and conversion to methylated product was monitored.
# human SETD3 [2] = target: T1, human SETD3; assay: MALDI-TOF MS methylation kinetics assay (Michaelis-Menten, steady state)
# Procedure: Catalytic efficiencies were explored for SETD3-catalyzed methylation of linear βA peptides 1, 6, 8 and 10 (Fig. 5; Table 1). Kinetic parameters were determined using MALDI-TOF MS assays under steady-state conditions by incubation with saturating amounts of SAM (100 µM)[23]. Addition of SETD3 (200 nM) to varying concentrations of linear βA peptides (0–150 µM) in reaction buffer initiated the reaction, upon which the mixture was incubated at 37 °C and quenched at timepoints that guarantee v0-reaction rates for SETD3-catalyzed methylation.
# Fig. 5 Michaelis–Menten kinetics of linear βA peptides at varying concentrations (3.125-150 µM) by SETD3 (200 nM) in presence of saturating amounts of SAM (100 µM) in reaction buffer (25 mM Tris, 20 mM NaCl, pH = 9.0) at 37 °C.
# Kinetics evaluation was carried out with a MALDI-TOF MS assay under steady state conditions. βA peptides (3.125–150 µM) and SAM (100 µM) were dissolved in methylation buffer (25 mM Tris, 20 mM NaCl, pH = 9.0), upon which the reaction was initiated by addition of SETD3. Reactions were incubated at 37 °C and shaken at 750 rpm Eppendorf Thermomixer C for 30 min, upon which the reactions were quenched by addition of 10% TFA in MilliQ water (1:1). Reactions were aliquoted and mixed with α-cyano-4-hydroxycinnamic acid dissolved in MilliQ H2O and ACN (1:1, v/v) with 0.1% TFA. The aliquots were loaded onto a MTP 384 polished steel target for MALDI-TOF analysis using a UltrafleXtreme. Methylated product was quantified by determining the combined integrals of the various ionic species of the methylated product. Kinetic parameters were subsequently determined by plotting V0 values and actin peptide concentrations and fitting them to the Michaelis–Menten equation using GraphPad Prism software. Experiments were performed in duplicate and values are reported as mean [drawing 1] standard error (SE) (Figs. S3-S4).
# [3] = 200 nM SETD3, 3.125-150 µM peptide, 100 µM SAM, 25 mM Tris, 20 mM NaCl, pH 9.0, 37 °C, MALDI-TOF MS, duplicate, mean ± SE
smiles,measurement,setting,value
CC[C@H](C)[C@H](NC(=O)[C@@H]1CCCN1C(=O)[C@H](Cc1ccc(O)cc1)NC(=O)[C@H](CCCCN)NC(=O)[C@H](CC(C)C)NC(=O)[C@@H](N)[C@@H](C)O)C(=O)N[C@@H](CCC(=O)O)C(=O)N[C@@H](Cc1c[nH]cn1)C(=O)NCC(=O)N[C@@H](CCCCN)C(=O)N[C@H](C(=O)N[C@H](C(=O)N[C@@H](CC(N)=O)C(=O)N[C@@H](Cc1c[nH]c2ccccc12)C(=O)N[C@@H](CC(=O)O)C(=O)N[C@@H](CC(=O)O)C(N)=O)[C@@H](C)O)C(C)C,SETD3-catalyzed methylation (conversion) within 1 h,human SETD3 [1],completely methylated
same,Km,human SETD3 [2]; [3],25.1 µM
same,kcat,human SETD3 [2]; [3],4.1 ± 0.158 s⁻¹
same,kcat/Km,"human SETD3 [2]; 200 nM SETD3, 3.125-150 µM peptide, 100 µM SAM, pH 9.0, 37 °C",163000 M⁻¹ s⁻¹
same,fold increase in catalytic efficiency (kcat/Km) relative to native βA-H73 sequence,human SETD3 [2]; same conditions as Table 1,1.7 fold
